Among the data in patent publication US8846699B2, “Quinazoline derivatives as a multiplex inhibitor and method for the preparation thereof” (Hanmi Pharm. Co., Ltd., priority 2005, dated 2014) are IC50 values, retold here.

Amino acid sequences for entries named in this document (tags omitted). Residues count along the entry.
UniProt P35968, 20-1356: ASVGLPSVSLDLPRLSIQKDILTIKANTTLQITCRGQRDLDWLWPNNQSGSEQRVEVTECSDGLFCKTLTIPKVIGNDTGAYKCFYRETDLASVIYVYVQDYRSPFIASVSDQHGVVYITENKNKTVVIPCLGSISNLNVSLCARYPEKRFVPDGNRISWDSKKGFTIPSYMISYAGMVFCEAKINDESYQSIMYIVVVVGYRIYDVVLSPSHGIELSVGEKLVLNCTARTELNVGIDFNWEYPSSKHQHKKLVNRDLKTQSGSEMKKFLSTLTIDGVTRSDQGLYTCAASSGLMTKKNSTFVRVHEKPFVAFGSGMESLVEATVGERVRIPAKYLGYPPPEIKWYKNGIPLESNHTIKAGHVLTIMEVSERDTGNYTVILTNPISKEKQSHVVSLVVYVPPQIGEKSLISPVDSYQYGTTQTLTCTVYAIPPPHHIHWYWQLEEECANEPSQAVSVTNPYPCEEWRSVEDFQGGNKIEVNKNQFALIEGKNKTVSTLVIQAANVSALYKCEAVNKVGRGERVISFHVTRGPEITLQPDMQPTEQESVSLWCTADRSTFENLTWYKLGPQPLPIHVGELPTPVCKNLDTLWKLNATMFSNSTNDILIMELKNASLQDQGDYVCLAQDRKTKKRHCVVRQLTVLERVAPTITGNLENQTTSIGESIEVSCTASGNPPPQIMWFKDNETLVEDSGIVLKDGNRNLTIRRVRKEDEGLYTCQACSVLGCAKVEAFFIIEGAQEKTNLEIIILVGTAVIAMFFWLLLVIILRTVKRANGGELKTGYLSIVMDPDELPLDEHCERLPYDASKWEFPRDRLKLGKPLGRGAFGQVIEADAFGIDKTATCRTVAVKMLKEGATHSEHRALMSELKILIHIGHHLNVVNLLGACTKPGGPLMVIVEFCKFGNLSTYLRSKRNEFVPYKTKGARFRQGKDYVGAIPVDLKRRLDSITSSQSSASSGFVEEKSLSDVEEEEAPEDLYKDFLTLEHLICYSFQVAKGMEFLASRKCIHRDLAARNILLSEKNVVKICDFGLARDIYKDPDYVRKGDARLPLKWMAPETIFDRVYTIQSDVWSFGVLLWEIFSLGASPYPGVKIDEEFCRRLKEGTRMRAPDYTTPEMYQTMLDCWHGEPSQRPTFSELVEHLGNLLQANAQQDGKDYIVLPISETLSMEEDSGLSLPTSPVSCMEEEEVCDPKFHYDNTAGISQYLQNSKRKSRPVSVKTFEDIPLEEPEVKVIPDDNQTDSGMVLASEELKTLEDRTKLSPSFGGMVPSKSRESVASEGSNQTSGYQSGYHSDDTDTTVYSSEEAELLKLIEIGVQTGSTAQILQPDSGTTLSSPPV

The test system of test [1] is Human Umbilical Vein Endothelial Cell (HUVEC). Nature of the test: Inhibitory effect on growth of human umbilical vein endothelial cell (HUVEC), MTS. Format: cell-based. Particulars: 10 ng/ml VEGF, absorbance 490 nm.
For test [2], the target named is VEGFR2 (KDR) (Homo sapiens (Human), UniProt P35968). In words: VEGFR2 (KDR) enzyme assay, fluorescence polarization. Conditions: 5 μM ATP, poly(Glu, Tyr) substrate. Format: biochemical.

For the compound `C=CC(=O)Nc1cc2c(Nc3ccc(Br)cc3F)ncnc2cc1OCCNC(=O)C1CCCN1C` (stereo not shown) [Example 98, 1-methyl-pyrrolidine-2-carboxylic acid {2-[6-acryloylamino-4-(4-bromo-2-fluoro-phenylamino)-quinazolin-7-yloxy]-ethyl}-amide], the IC50 (commonly the point on the concentration scale where inhibition reaches its midpoint) in test [1] (Homo sapiens, 96 h) was 0.966 µM; in test [2] it was 0.965 µM.

Regarding `C=CC(=O)Nc1cc2c(Nc3ccc(Br)cc3F)ncnc2cc1OCCNC(=O)C1CCCN1C` (stereo not shown) [Example 100, 1-methyl-pyrrolidine-2-carboxylic acid {2-[6-acryloylamino-4-(4-bromo-2-fluoro-phenylamino)-quinazolin-7-yloxy]-ethyl}-amide], the IC50 in test [1] (96 hours) was determined as 0.897 µM; in test [2] it was 0.995 µM.
